Source: patent US9555023B2, “Pharmaceutical salts and polymorphs of a factor Xa inhibitor” (Millennium Pharmaceuticals, Inc., priority 2005, dated 2017)

Tests used:
[1] = Secondary screen: crystallinity (XRPD); format: physicochemical
Method: X-Ray Powder Diffraction patterns were collected on a Siemens D5000 diffractometer using CuKα radiation (40 kV, 40 mA), […], automatic divergence and receiving slits, a graphite secondary monochromator and a scintillation counter.
Samples run under ambient conditions were prepared as flat plate specimens using powder. Approximately 35 mg of the sample was gently packed into a cavity cut into polished, zero-background (510) silicon wafer. The sample was rotated in its own plane during analysis. The details of the data collection are given for the method in Table 2 below: […]

[2] = Gravimetric vapour sorption (GVS) water sorption; format: physicochemical; conditions: 25° C., 0-90% RH, listed as salt of Formula II
Method: All samples were run on a Hiden IGASorp moisture sorption analyzer running CFRSorp software. Sample sizes were typically 10 mg. A moisture adsorption desorption isotherm was performed as outlined below (2 scans giving 1 complete cycle). All samples were loaded/unloaded at typical room humidity and temperature (40% RH, 25° C.). All samples were analyzed by XRPD post GVS analysis. The standard isotherm was performed at 25° C. at 10% RH intervals over a 0-90% RH range.

[3] = Stability: hydrolyzed amidine content by HPLC after 57° C. / 75% humidity; format: physicochemical; conditions: 75% room humidity, percentage of the main peak
Method: To assess the thermal and hydrolytic stability of the salt, tests known to those of skill in the art are performed.
The sample solvent was methanol and a mobile phase modifier of 0.1% trifluoroacetic acid was employed. Data were collected after 3, 6 and 10 days except data for the propionate was collected at 0, 3, and 8 days. […] All other impurity peaks were disregarded in the calculation

[4] = at 100° C.

## COc1ccc(NC(=O)c2ccc(C(=N)N(C)C)cc2)c(C(=O)Nc2ccc(Cl)cn2)c1 [Maleate]
[1]
  crystallinity (in words): excellent crystallinity
[1]; secondary screen, Table 5
  Crystallinity: crystalline
[2]
  Water Sorption (reversibility, level of uptake): reversible
[3]; 3 days
  Hydrolyzed Amidine Content (3 days): 0.0%
[3]; 6 days
  Hydrolyzed Amidine Content (6 days): 0.0%
[3]; 10 days
  Hydrolyzed Amidine Content (10 days): 0.0%
[4]
  weight loss (TGA): 0.62%
